Test: Selectivity ratio of EC50 for gamma-secretase to EC50 for mouse notch processing

| Structure (SMILES) | Ratio EC50 |
| --- | --- |
| CC[C@H](C)[C@@H](CO)NS(=O)(=O)c1ccc(Br)cc1 | 9 |
| CC[C@H](C)[C@@H](CO)NS(=O)(=O)c1ccc(Cl)cc1 | 3.7 |

From ChEMBL document CHEMBL1140230, “Discovery of begacestat, a Notch-1-sparing gamma-secretase inhibitor for the treatment of Alzheimer's disease” (J Med Chem, 2008)
